Experimental data taken from publication PMC3411462, “Long-acting κ opioid antagonists nor-BNI, GNTI and JDTic: pharmacokinetics in mice and lipophilicity” (BMC Pharmacology, 2012).

The chains behind the UniProt entries cited, without tags or fusion partners.
UniProt P08183, whole entry: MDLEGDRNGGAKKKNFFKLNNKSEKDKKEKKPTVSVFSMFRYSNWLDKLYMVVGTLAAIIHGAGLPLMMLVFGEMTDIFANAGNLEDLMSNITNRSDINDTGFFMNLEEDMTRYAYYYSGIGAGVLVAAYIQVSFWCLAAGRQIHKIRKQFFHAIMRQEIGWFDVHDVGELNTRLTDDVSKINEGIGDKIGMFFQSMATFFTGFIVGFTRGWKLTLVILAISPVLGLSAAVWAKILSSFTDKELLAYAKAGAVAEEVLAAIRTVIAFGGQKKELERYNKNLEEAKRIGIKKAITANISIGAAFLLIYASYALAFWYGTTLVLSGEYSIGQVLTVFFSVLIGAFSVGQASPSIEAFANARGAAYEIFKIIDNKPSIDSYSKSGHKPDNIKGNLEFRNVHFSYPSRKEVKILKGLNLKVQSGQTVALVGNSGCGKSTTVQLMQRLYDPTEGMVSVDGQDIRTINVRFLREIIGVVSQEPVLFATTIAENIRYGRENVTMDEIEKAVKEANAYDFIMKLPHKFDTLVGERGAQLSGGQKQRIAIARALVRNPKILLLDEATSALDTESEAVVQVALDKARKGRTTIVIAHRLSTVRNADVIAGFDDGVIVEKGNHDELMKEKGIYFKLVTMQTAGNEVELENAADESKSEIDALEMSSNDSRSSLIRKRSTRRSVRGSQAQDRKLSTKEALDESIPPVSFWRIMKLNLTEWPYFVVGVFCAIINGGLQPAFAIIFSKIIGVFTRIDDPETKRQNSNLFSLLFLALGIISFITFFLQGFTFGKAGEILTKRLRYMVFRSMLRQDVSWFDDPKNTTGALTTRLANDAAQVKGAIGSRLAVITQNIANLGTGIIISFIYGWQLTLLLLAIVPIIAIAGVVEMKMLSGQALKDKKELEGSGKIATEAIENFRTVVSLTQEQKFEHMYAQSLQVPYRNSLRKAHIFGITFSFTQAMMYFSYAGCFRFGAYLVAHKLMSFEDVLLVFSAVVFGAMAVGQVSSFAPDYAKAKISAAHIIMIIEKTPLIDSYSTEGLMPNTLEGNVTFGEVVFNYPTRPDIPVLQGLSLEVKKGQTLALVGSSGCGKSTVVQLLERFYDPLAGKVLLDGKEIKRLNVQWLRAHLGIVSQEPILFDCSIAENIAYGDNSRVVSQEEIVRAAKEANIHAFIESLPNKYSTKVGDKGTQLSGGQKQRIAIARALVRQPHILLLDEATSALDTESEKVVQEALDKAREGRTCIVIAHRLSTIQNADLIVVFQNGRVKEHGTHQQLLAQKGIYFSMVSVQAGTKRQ

Experiments:
[1] = target: T1, P-gp (human MDR1) (Homo sapiens, UniProt P08183); assay: LLC-PK1-MDR1 cell permeation and efflux; type: in vitro ADME; conditions: pig (LLC-PK1 cells) transfected with human MDR1; LLC-PK1-MDR1 monolayers; read-out: Efflux ratio (B → A/A → B)
T1 construct: expressed in transfected cells; host or cells: LLC-PK1 (pig kidney epithelial cells) transfected with human MDR1 at Amgen

[2] = Octanol-buffer distribution (log D7.4); type: physicochemical; conditions: mean, n = 3

SMILES: Oc1ccc2c3c1O[C@H]1c4[nH]c5c(c4C[C@@]4(O)[C@@H](C2)N(CC2CC2)CC[C@]314)C[C@@]1(O)[C@H]2Cc3ccc(O)c4c3[C@@]1(CCN2CC1CC1)[C@H]5O4 [nor-BNI, norbinaltorphimine]
- efflux ratio at 120 min, 5 μM [1]: 1.5
- Log10D7.4 octanol:buffer (pH 7.4) [2]: 1–3
- Log10D7.4 octanol:buffer (pH 7.4) ([2]; listed as Nor-BNI): 1.5
